Source: PubChem BioAssay AID1469 (National Center for Advancing Translational Sciences (NCATS), 2008)
The list shows a part of the results, in another mix than the full data. Some structures show a salt or complex split into parts, the way the source records it. Calls of active or inactive are those of the source. The call rests on the fitted dose curve; in most records, active means well fitted inhibition curve with a large enough effect; inconclusive means small, poorly fitted or top-dose-only effect, or effect the other way; inactive means flat fitted curve, though single readings scatter.

Sequences of proteins named here, by UniProt entry; tags and fusion partners are left off.
UniProt P10828, whole entry: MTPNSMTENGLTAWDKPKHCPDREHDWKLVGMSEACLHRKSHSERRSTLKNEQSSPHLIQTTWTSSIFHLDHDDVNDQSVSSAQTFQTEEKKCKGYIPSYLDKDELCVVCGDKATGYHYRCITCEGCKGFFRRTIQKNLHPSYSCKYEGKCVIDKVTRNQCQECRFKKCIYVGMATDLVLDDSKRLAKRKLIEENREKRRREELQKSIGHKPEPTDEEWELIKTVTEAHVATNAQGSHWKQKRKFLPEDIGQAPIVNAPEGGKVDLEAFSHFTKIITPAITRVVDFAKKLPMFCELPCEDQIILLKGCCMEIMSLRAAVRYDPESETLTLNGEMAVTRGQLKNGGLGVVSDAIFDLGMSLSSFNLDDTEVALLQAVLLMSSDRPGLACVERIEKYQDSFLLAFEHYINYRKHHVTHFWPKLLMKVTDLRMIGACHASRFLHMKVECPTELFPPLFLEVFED

Molecular target: Thyroid hormone receptor beta (Homo sapiens) (UniProt P10828)
Assay: qHTS for Inhibitors of the Interaction of Thyroid Hormone Receptor and Steroid Receptor Coregulator 2; further: nearly all actives have a fitted effect of over 50% in size
Conditions: TRbeta-SRC2 peptide binding, fluorescence polarization, receptor liganded with 1 µM T3
From the text: NIH Molecular Libraries Probe Production Network [MLPCN]
NIH Chemical Genomics Center [NCGC]
Assay Provider: R. Kip Guy, St. Jude Children's Research Hospital
Thyroid receptor (TR) regulates many homeostatic processes including basal metabolism, cardiovascular function, body weight, and lipid trafficking. TR modulators are potential therapeutics for obesity and hyperlipidemias but current thyroid analogs have undesirable side effects, particularly cardiac stimulation. To identify inhibitors that specifically prevent the interaction of TR with the steroid receptor coregulator 2 (SRC2), a fluorescence polarization assay was screened. This assay detects interaction of the ligand-binding domain of human TRb with a Texas Red labeled SRC2 peptide, corresponding to a 20 amino acid region of the nuclear receptor interaction domain (Arnold et al., 2006). Small molecule inhibitors that block the interaction of TR and SRC2 are detected by a decrease in fluorescence polarization.
Arnold, L. A.; Estebanez-Perpina, E.; Togashi, M.; Shelat, A.; Ocasio, C. A.; McReynolds, A. C.; Nguyen, P.; Baxter, J. D.; Fletterick, R. J.; Webb, P.; Guy, R. K. A high-throughput screening method to identify small molecule inhibitors of thyroid hormone receptor coactivator binding. Sci STKE 2006, p 13.
NCGC Assay Protocol Summary:
For screening, 5 uL/well 0.6 uM TRb and 20 nM SRC2 Texas Red in protein buffer (20mM Tris hydrochloride, 100mM NaCl, 10% glycerol, 1mM EDTA, 0.01% NP-40, 1mM DTT, 1uM T3 and 5% DMSO) was dispensed into black solid 1536-well plates (Grenier) using a solenoid-based dispenser. Following transfer of 23 nL compound or DMSO vehicle by a pin tool, the plates were centrifuged 15 s at 1000 RPM and incubated 5 hr at ambient temperature. […] Data were normalized to unbound (all components except TRb) and bound SRC2 Texas Red controls. In this assay, we provide % activity data for each concentration as well as potencies for the active compounds.
Keywords: NIH Roadmap, MLPCN, MLI, MLSMR, qHTS, NCGC, qHTS, thyroid hormone receptor, steroid receptor coactivator, fluorescence polarization

[1] = at 106 µM (top of the series) unless noted

With `CN(C)c1cccc(C(=O)NCC2(N3CCCCC3)CCCCC2)c1` the activity change, negative = inhibition [1] was inactive: -3.94%.
In the case of `COc1ccc(CN(CCCl)CCCl)cc1Cl`, the activity change, negative = inhibition [1] is reported as inactive: 5.8% [at 53 µM].
For `CC(C)c1ccc(NC2CCN(C(=O)OC(C)(C)C)CC2)cc1`, the activity change, negative = inhibition [1] was inactive: -6.31%.
With `CCOP(=O)(Cl)Cl` the activity change, negative = inhibition (at 106 µM (top of the series)) was inactive: 1.06% and the activity change, negative = inhibition (at 201 µM (top of the series)) was inactive: -2.2%.
`COc1ccc2c(c1O)-c1c(O)c(OC)cc3c1[C@H](C2)[N+](C)(C)CC3.O=[N+]([O-])c1cc([N+](=O)[O-])c([O-])c([N+](=O)[O-])c1[O-]` was tested, and the activity change, negative = inhibition [1] was inactive: 4.43%.
For `O=C(OC1CN2CCC1CC2)c1ccc([N+](=O)[O-])cc1` (stereo not given), the activity change, negative = inhibition [1] was inactive: -4.37%.
`O=C(NCC1(N2CCOCC2)CCCCC1)c1ccccc1Br` was tested, and the activity change, negative = inhibition [1] was inactive: 1.29%.
With `CCCCOc1ccccc1C(=O)NCC1(N2CCOCC2)CCCCC1` the activity change, negative = inhibition [1] was inactive: -1.24%.
For `CCOc1ccc(C(=O)NCC2(N3CCOCC3)CCCCC2)cc1`, the activity change, negative = inhibition [1] was inactive: -2.01%.
For `O=C(NCC1(N2CCCCC2)CCCCC1)c1cccc([N+](=O)[O-])c1`, the activity change, negative = inhibition [1] was inactive: 1.79%.
For `N#CC1(Nc2ccccc2)CCN(CCc2ccccc2)CC1`, the activity change, negative = inhibition [1] was inactive: 9.28%.
For `CCCOc1cccc(C(=O)NCC2(N3CCOCC3)CCCCC2)c1`, the activity change, negative = inhibition [1] was inactive: -1.26%.
`O=[N+]([O-])c1cc([N+](=O)[O-])c(NCC2CCS(=O)(=O)C2)c([N+](=O)[O-])c1` (stereo not given) was tested, and the activity change, negative = inhibition [1] was inactive: -6.44%.
For `COc1ccc(NC2CCN(C(=O)OC(C)(C)C)CC2)cc1`, the activity change, negative = inhibition [1] was inactive: 3.28%.
For `CN1CCN(CCOC(=O)C(O)(c2ccccc2)c2ccccc2)CC1`, the activity change, negative = inhibition [1] was inactive: -8.84%.
`O=C(NCC1(N2CCOCC2)CCCCC1)c1cc(=O)[nH]c2ccccc12` was tested, and the activity change, negative = inhibition [1] was inactive: -25.2%.
`CCOc1ccc(C)cc1CN(CCCl)CCCl` was tested, and the activity change, negative = inhibition [1] was inactive: -6.22%.
With `O=C(NCC1(N2CCOCC2)CCCCC1)c1ccc(Cl)cc1` the activity change, negative = inhibition [1] was inactive: -3.56%.
In the case of `COc1ccc(NC2CCN(CCc3ccccc3)CC2)c(OC)c1`, the activity change, negative = inhibition [1] is reported as inactive: -18.2%.
For `O=[N+]([O-])c1ccccc1[N+](=O)[O-]`, the activity change, negative = inhibition [1] was inactive: -1.9% [at 201 µM].
In the case of `COc1ccccc1C(=O)NCC1(N2CCOCC2)CCCCC1`, the activity change, negative = inhibition [1] is reported as inactive: -10.2%.
With `COc1ccc(C(=O)NCC2(N3CCCCC3)CCCCC2)c(OC)c1OC` the activity change, negative = inhibition [1] was inactive: -1.49%.
In the case of `O=C(NCC1(N2CCOCC2)CCCCC1)c1cc2ccccc2o1`, the activity change, negative = inhibition [1] is reported as inactive: -1.31%.
In the case of `CCOC(=O)N1CCC(Nc2ccc(OC)cc2)CC1`, the activity change, negative = inhibition [1] is reported as inactive: -1.16%.
With `N#CC1(Nc2ccccc2)CCN(Cc2ccccc2)CC1` the activity change, negative = inhibition [1] was inactive: 2.84%.
In the case of `O=C(OC1CN2CCC1CC2)C1c2ccccc2Oc2ccccc21` (stereo not given), the activity change, negative = inhibition [1] is reported as inactive: -3.82%.
`CCOc1ncccc1C(=O)NCC1(N2CCOCC2)CCCCC1` was tested, and the activity change, negative = inhibition [1] was inactive: -0.125%.
`CC(C)(C)OC(=O)N1CCC(Nc2ccccc2)CC1` was tested, and the activity change, negative = inhibition [1] was inactive: 1.62%.
In the case of `CCC(CO)(C(=O)OC1CN2CCC1CC2)c1ccccc1` (stereo not given), the activity change, negative = inhibition [1] is reported as inactive: 5.72%.
`COc1cc(OC)cc(C(=O)NCC2(N3CCOCC3)CCCCC2)c1` was tested, and the activity change, negative = inhibition [1] was inactive: 2.49%.
In the case of `COc1cc(C(=O)NCC2(N3CCOCC3)CCCCC2)cc(OC)c1OC`, the activity change, negative = inhibition [1] is reported as inactive: -6.6%.
With `CCCOc1ccc(C)cc1CN(CCCl)CCCl` the activity change, negative = inhibition [1] was inactive: -4.2%.
With `CN(C)C1(CNC(=O)c2ccc(C(C)(C)C)cc2)CCCCC1` the activity change, negative = inhibition [1] was inactive: -1.16%.
With `Fc1ccccc1NC1CCN(Cc2ccccc2)CC1` the activity change, negative = inhibition [1] was inactive: -1.82%.
For `CCN1CCC(Nc2cccc(F)c2)CC1`, the activity change, negative = inhibition [1] was inactive: -2.61%.
In the case of `CN(C)c1ccc(C(=O)NCC2(N3CCCCC3)CCCCC2)cc1`, the activity change, negative = inhibition [1] is reported as inactive: 3.57%.
`CC(C)(C)c1ccc(C(=O)NCC2(N3CCOCC3)CCCCC2)cc1` was tested, and the activity change, negative = inhibition [1] was inactive: -9.31%.
For `Cc1ccccc1C(=O)NCC1(N(C)C)CCCCC1`, the activity change, negative = inhibition [1] was inactive: -2.09%.
With `O=C(NCC1(N2CCOCC2)CCCCC1)c1ccc([N+](=O)[O-])cc1` the activity change, negative = inhibition [1] was inactive: -1.13%.
With `O=C(NCC1(N2CCOCC2)CCCCC1)c1ccccc1[N+](=O)[O-]` the activity change, negative = inhibition [1] was inactive: -7.28%.
In the case of `N#Cc1ccc(C(=O)NCC2(N3CCCCC3)CCCCC2)cc1`, the activity change, negative = inhibition [1] is reported as inactive: 1.24%.
With `CCOC(=O)C(CC)C1=NC(C)(C)Cc2ccccc21.O=[N+]([O-])c1cc([N+](=O)[O-])c(O)c([N+](=O)[O-])c1` (stereo not given) the activity change, negative = inhibition [1] was inactive: 2.96%.
For `O=C(NCC1(N2CCOCC2)CCCCC1)c1ccccc1`, the activity change, negative = inhibition [1] was inactive: -7.64%.
`c1ccc(CN2CCC(Nc3ccccc3)CC2)cc1` was tested, and the activity change, negative = inhibition [1] was inactive: 0.408%.
For `ClCCOP(OCCCl)OCCCl`, the activity change, negative = inhibition [1] was inactive: 1.32%.
With `COc1ccc(C(=O)NCC2(N3CCOCC3)CCCCC2)cc1OC` the activity change, negative = inhibition [1] was inactive: -3.83%.
`N/C(=N\O)c1c(N)no[n+]1[O-]` was tested, and the activity change, negative = inhibition [1] was inactive: -0.939%.
`O=C(O)c1cccc(Nc2c([N+](=O)[O-])cc([N+](=O)[O-])cc2[N+](=O)[O-])c1` was tested, and the activity change, negative = inhibition [1] was inactive: 6.21%.
In the case of `O=C(OC1CN2CCC1CC2)C1c2ccccc2C=Cc2ccccc21` (stereo not given), the activity change, negative = inhibition [1] is reported as inactive: 1.3%.
